Some results for these compounds are left out of this collection, so the calls shown say nothing about other tests.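 Where inhibition never reached the appropriate level, the endpoint shown equals the highest concentration tested. Otherwise, values were interpolated linearly from a five-concentration, 48-hour dose response in 96-well plates. GI50: concentration for 50% inhibition of growth. TGI: total growth inhibition.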
Legend:
Experiment in all cases: DTP human tumour cell line panel, 48 h
[1] = test system: OVCAR-8 ovarian
[2] = test system: SNB-19 CNS
[3] = test system: HT29 colon
[4] = test system: COLO 205 colon
[5] = test system: DU-145 prostate
[6] = test system: SW-620 colon
[7] = test system: PC-3 prostate
[8] = test system: SNB-75 CNS
[9] = test system: HOP-62 NSCLC
[10] = test system: M14 melanoma
[11] = test system: NCI-H460 lung
[12] = test system: CCRF-CEM leukemia
[13] = test system: NCI-H322M lung
[14] = test system: MDA-MB-231 breast
[15] = test system: NCI-H522 lung
[16] = test system: CAKI-1 renal
[17] = test system: SK-MEL-2 melanoma
[18] = test system: SK-MEL-28 melanoma
[19] = test system: T-47D breast
[20] = test system: OVCAR-5 ovarian
[21] = test system: SF-295 CNS
[22] = test system: HL-60(TB) leukemia
[23] = test system: 786-0 renal
[24] = test system: OVCAR-4 ovarian
[25] = test system: HCT-116 colon
[26] = test system: EKVX NSCLC
[27] = test system: NCI/ADR-RES ovarian
[28] = test system: NCI-H23 lung
[29] = test system: RPMI-8226 leukemia
[30] = test system: UACC-257 melanoma
[31] = test system: MALME-3M melanoma
[32] = test system: MDA-MB-435
[33] = test system: A498 renal
[34] = test system: LOX IMVI melanoma
[35] = test system: SN12C renal
[36] = test system: SF-539 CNS
[37] = test system: MOLT-4 leukemia
[38] = test system: RXF 393 renal
[39] = test system: SK-MEL-5 melanoma
[40] = test system: UO-31 renal
[41] = test system: HCT-15 colon
[42] = test system: HCC-2998 colon
[43] = test system: A549 NSCLC
[44] = test system: UACC-62 melanoma
[45] = test system: ACHN renal
[46] = test system: SK-OV-3 ovarian
[47] = test system: IGROV1 ovarian
[48] = test system: KM12 colon
[49] = test system: TK-10 renal
[50] = test system: U251 CNS
[51] = test system: MDA-N
[52] = test system: SR leukemia
[53] = test system: SF-268 CNS
[54] = test system: K-562 leukemia
[55] = test system: MCF7 breast
[56] = test system: OVCAR-3 ovarian
[57] = test system: HS 578T breast
[58] = test system: NCI-H226 lung

In the case of `CC#CC(O)(C(=O)OC1CCN(C)CC1)C1CCCCC1` (stereo unspecified), the GI50 [1] is reported as greater than 100 µM, the TGI [1] is reported as greater than 100 µM and the GI50 [2] is reported as greater than 100 µM. For the same compound, the TGI [2] was greater than 100 µM, the GI50 [3] was greater than 100 µM and the TGI [3] was greater than 100 µM. It also gave a GI50 [4] greater than 100 µM, a TGI [4] greater than 100 µM and a GI50 [5] greater than 100 µM. The TGI [5] was greater than 100 µM, the GI50 [6] was greater than 100 µM and the TGI [6] was greater than 100 µM. For the same compound, the GI50 [7] was greater than 100 µM, the TGI [7] was greater than 100 µM and the GI50 [8] was 84.3 µM. The TGI [8] was greater than 100 µM, the GI50 [9] was greater than 100 µM and the TGI [9] was greater than 100 µM. It also gave a GI50 [10] greater than 100 µM, a TGI [10] greater than 100 µM and a GI50 [11] greater than 100 µM. For the same compound, the TGI [11] was greater than 100 µM, the GI50 [12] was greater than 100 µM and the TGI [12] was greater than 100 µM. The GI50 [13] was greater than 100 µM, the TGI [13] was greater than 100 µM and the GI50 [14] was greater than 100 µM. It also gave a TGI [14] greater than 100 µM, a GI50 [15] greater than 100 µM and a TGI [15] greater than 100 µM. For the same compound, the GI50 [16] was greater than 100 µM, the TGI [16] was greater than 100 µM and the GI50 [17] was greater than 100 µM. The TGI [17] was greater than 100 µM, the GI50 [18] was greater than 100 µM and the TGI [18] was greater than 100 µM. It also gave a GI50 [19] greater than 100 µM, a TGI [19] greater than 100 µM and a GI50 [20] greater than 100 µM. The TGI [20] was greater than 100 µM, the GI50 [21] was greater than 100 µM and the TGI [21] was greater than 100 µM. It also gave a GI50 [22] greater than 100 µM, a TGI [22] greater than 100 µM and a GI50 [23] greater than 100 µM. It also gave a TGI [23] greater than 100 µM, a GI50 [24] greater than 100 µM and a TGI [24] greater than 100 µM. It also gave a GI50 [25] greater than 100 µM, a TGI [25] greater than 100 µM and a GI50 [26] greater than 100 µM. It also gave a TGI [26] greater than 100 µM, a GI50 [27] greater than 100 µM and a TGI [27] greater than 100 µM. The GI50 [28] was greater than 100 µM, the TGI [28] was greater than 100 µM and the GI50 [29] was greater than 100 µM. It also gave a TGI [29] greater than 100 µM, a GI50 [30] greater than 100 µM and a TGI [30] greater than 100 µM. It also gave a GI50 [31] greater than 100 µM, a TGI [31] greater than 100 µM and a GI50 [32] greater than 100 µM. For the same compound, the TGI [32] was greater than 100 µM, the GI50 [33] was greater than 100 µM and the TGI [33] was greater than 100 µM. For the same compound, the GI50 [34] was greater than 100 µM, the TGI [34] was greater than 100 µM and the GI50 [35] was greater than 100 µM. The TGI [35] was greater than 100 µM, the GI50 [36] was greater than 100 µM and the TGI [36] was greater than 100 µM. It also gave a GI50 [37] greater than 100 µM, a TGI [37] greater than 100 µM and a GI50 [38] greater than 100 µM. It also gave a TGI [38] greater than 100 µM, a GI50 [39] greater than 100 µM and a TGI [39] greater than 100 µM. It also gave a GI50 [40] greater than 100 µM, a TGI [40] greater than 100 µM and a GI50 [41] greater than 100 µM. For the same compound, the TGI [41] was greater than 100 µM, the GI50 [42] was greater than 100 µM and the TGI [42] was greater than 100 µM. The GI50 [43] was greater than 100 µM, the TGI [43] was greater than 100 µM and the GI50 [44] was greater than 100 µM. For the same compound, the TGI [44] was greater than 100 µM, the GI50 [45] was greater than 100 µM and the TGI [45] was greater than 100 µM. The GI50 [46] was greater than 100 µM, the TGI [46] was greater than 100 µM and the GI50 [47] was greater than 100 µM. The TGI [47] was greater than 100 µM, the GI50 [48] was greater than 100 µM and the TGI [48] was greater than 100 µM. The GI50 [49] was greater than 100 µM, the TGI [49] was greater than 100 µM and the GI50 [50] was greater than 100 µM. The TGI [50] was greater than 100 µM, the GI50 [51] was greater than 100 µM and the TGI [51] was greater than 100 µM. It also gave a GI50 [52] greater than 100 µM, a TGI [52] greater than 100 µM and a GI50 [53] greater than 100 µM. For the same compound, the TGI [53] was greater than 100 µM, the GI50 [54] was greater than 100 µM and the TGI [54] was greater than 100 µM. It also gave a GI50 [55] greater than 100 µM, a TGI [55] greater than 100 µM and a GI50 [56] greater than 100 µM. For the same compound, the TGI [56] was greater than 100 µM, the GI50 [57] was greater than 100 µM and the TGI [57] was greater than 100 µM. The GI50 [58] was greater than 100 µM and the TGI [58] was greater than 100 µM.

Reference: PubChem BioAssay (NCI)
